{"sequences": {"note": "Amino acid sequences for entries named in this document (tags omitted). Residues count along the entry.", "UniProt P05106, 27-788 limits assumed": "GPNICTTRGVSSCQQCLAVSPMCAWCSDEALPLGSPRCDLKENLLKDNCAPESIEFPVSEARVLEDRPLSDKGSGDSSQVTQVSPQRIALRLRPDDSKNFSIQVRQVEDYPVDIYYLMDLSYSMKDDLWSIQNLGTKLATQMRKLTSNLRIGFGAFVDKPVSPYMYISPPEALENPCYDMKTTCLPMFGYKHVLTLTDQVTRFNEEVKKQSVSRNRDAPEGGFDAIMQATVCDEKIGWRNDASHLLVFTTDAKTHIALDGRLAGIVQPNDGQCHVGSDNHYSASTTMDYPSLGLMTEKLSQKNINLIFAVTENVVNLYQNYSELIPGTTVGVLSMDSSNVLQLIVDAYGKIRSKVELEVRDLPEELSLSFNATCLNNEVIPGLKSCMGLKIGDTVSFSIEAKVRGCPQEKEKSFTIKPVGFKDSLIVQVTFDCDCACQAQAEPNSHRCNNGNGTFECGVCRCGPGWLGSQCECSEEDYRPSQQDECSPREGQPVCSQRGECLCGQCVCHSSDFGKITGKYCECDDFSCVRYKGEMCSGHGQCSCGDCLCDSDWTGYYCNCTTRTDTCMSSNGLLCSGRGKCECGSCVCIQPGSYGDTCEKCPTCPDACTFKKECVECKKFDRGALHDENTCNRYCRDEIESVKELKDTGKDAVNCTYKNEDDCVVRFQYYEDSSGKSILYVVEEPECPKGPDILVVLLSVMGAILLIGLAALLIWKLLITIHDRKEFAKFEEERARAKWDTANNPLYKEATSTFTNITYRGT", "UniProt P08514, 32-1039 limits assumed": "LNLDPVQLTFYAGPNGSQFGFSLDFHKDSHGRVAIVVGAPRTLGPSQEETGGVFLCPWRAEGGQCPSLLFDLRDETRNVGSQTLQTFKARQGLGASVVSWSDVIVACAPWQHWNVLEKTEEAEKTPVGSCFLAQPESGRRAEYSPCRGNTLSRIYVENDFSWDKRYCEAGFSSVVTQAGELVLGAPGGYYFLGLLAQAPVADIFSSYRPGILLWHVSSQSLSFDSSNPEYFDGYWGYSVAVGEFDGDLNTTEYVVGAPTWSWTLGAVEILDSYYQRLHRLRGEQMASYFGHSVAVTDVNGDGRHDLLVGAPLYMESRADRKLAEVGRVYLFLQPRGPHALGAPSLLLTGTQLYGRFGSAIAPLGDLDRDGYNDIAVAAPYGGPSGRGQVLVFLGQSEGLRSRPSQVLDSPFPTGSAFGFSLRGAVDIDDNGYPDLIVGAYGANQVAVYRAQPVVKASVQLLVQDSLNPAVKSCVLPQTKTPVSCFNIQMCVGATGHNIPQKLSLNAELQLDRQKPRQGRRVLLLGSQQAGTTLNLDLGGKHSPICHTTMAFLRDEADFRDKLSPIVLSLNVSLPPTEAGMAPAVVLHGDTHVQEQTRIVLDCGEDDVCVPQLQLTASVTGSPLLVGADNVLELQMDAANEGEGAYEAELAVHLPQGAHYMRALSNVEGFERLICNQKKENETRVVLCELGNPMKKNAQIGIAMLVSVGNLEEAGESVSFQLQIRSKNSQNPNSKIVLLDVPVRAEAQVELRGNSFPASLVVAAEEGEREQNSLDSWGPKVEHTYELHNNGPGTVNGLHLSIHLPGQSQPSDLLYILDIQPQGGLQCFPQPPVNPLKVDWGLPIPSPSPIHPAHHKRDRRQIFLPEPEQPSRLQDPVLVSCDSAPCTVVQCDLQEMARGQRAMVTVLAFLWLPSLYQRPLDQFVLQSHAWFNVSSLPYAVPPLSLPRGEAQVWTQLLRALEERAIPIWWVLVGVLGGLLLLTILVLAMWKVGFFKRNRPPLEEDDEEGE"}, "source": "patent US5635477A", "about": "“Cyclic compounds useful as inhibitors of platelet glycoprotein IIB/IIIA” (The DuPont Merck Pharmaceutical Company, priority 1995, dated 1997)"}
{"biological_target": "agonist-induced platelet aggregation (Homo sapiens, UniProt P05106+P08514)", "assay": "Platelet Aggregation Assay", "settings": "read-out: IC50 value in the platelet aggregation assay, human PRP", "units": {"IC50": "nM"}}
{"smiles": "CN1C(=O)C(CCCCNC(=O)c2ccc(C(=O)c3ccccc3)cc2)NC(=O)c2cccc(c2)CNC(=O)[C@H](CC(=O)O)NC(=O)CNC(=O)[C@@H]1CCCNC(=N)N", "note": "(some centres unmarked)", "IC50": "< 1000"}
{"smiles": "CN1C(=O)C(CCCCNC(=O)c2cccc(C(=O)c3ccccc3)c2)NC(=O)c2cccc(c2)CNC(=O)[C@H](CC(=O)O)NC(=O)CNC(=O)[C@@H]1CCCNC(=N)N", "note": "(some centres unmarked)", "IC50": "< 1000"}
{"smiles": "CN(C)c1cccc2c(S(=O)(=O)NCCCCC3NC(=O)c4cccc(c4)CNC(=O)[C@H](CC(=O)O)NC(=O)CNC(=O)[C@H](CCCNC(=N)N)N(C)C3=O)cccc12", "note": "(some centres unmarked)", "IC50": "< 1000"}
{"smiles": "CN1C(=O)C(CCCCNC(=O)CN)NC(=O)c2cccc(c2)CNC(=O)[C@H](CC(=O)O)NC(=O)CNC(=O)[C@@H]1CCCNC(=N)N", "note": "(some centres unmarked)", "IC50": "< 1000"}
{"smiles": "CC(=O)c1ccc(C(=O)NCCCCC2NC(=O)c3cccc(c3)CNC(=O)[C@H](CC(=O)O)NC(=O)CNC(=O)[C@H](CCCNC(=N)N)N(C)C2=O)cc1", "note": "(some centres unmarked)", "IC50": "< 1000"}
{"smiles": "CN1C(=O)C(CCCCNC(=O)c2ccccc2C(=O)c2ccccc2)NC(=O)c2cccc(c2)CNC(=O)[C@H](CC(=O)O)NC(=O)CNC(=O)[C@@H]1CCCNC(=N)N", "note": "(some centres unmarked)", "IC50": "1000 to 10000"}
{"smiles": "CN1C(=O)C(CCCCNC(=O)c2ccc(-c3ccccc3)cc2)NC(=O)c2cccc(c2)CNC(=O)[C@H](CC(=O)O)NC(=O)CNC(=O)[C@@H]1CCCNC(=N)N", "note": "(some centres unmarked)", "IC50": "< 1000"}
{"smiles": "CN1C(=O)C(CCCCNC(=O)C(N)Cc2c[nH]c3ccccc23)NC(=O)c2cccc(c2)CNC(=O)[C@H](CC(=O)O)NC(=O)CNC(=O)[C@@H]1CCCNC(=N)N", "note": "(some centres unmarked)", "IC50": "< 1000"}
{"smiles": "CN1C(=O)C(CCCCNC(=O)CNC(=O)OC(C)(C)C)NC(=O)c2cccc(c2)CNC(=O)[C@H](CC(=O)O)NC(=O)CNC(=O)[C@@H]1CCCNC(=N)N", "note": "(some centres unmarked)", "IC50": "1000 to 10000"}
{"smiles": "CN1C(=O)C(CCCCNC(=O)c2ccc(N=[N+]=[N-])cc2)NC(=O)c2cccc(c2)CNC(=O)[C@H](CC(=O)O)NC(=O)CNC(=O)[C@@H]1CCCNC(=N)N", "note": "(some centres unmarked)", "IC50": "< 1000"}
{"smiles": "CN1C(=O)C(CCCCNC(=O)c2ccccc2Cc2ccccc2)NC(=O)c2cccc(c2)CNC(=O)[C@H](CC(=O)O)NC(=O)CNC(=O)[C@@H]1CCCNC(=N)N", "note": "(some centres unmarked)", "IC50": "< 1000"}
